# Measured affinities in a library of Ab-14 heavy chain variants

Target: peptide PDVDLGDISGINAS, taken from heptad repeat 2 (HR2) of SARS-CoV-2 spike.

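Phage display of a naive human antibody library on the peptide gave the parent. Designed CDR sequences, proposed from the first random library and measured here. Several design methods are mixed in this list. Affinity was read by AlphaSeq, a pooled yeast mating assay with surface-displayed partners. Pairs that bind mate more often; barcode pairs of the diploids are counted by sequencing. Scores were corrected for input abundance and mapped to Kd with protein pairs of known affinity run in the same pool. Mating was done six times.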

Parent: Ab-14, a human scFv built as VH, a (GGGGS)3 linker, VL. Only the CDRs of the heavy chain vary.
VH: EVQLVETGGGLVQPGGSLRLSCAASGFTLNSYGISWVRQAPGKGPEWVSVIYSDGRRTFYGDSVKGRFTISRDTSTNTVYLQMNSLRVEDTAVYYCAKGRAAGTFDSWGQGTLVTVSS
VL: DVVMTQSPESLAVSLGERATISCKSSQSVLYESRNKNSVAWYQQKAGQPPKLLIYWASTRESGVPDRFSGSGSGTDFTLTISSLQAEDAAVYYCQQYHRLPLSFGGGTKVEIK

Variants are written as CDR1, CDR2 and CDR3 of the heavy chain (limits as in the source). Parent: GFTLNSYGIS, VIYSDGRRTFYGDSVK, GRAAGTFDS. This list holds designs with more than six substitutions. The read-out is the apparent dissociation constant on a log10 scale (nM): the lower, the stronger. A mean of the replicates is given; it leaves out those without a signal. An entry "nd" has no value in the source: the pair was not observed among the diploids in that replicate. This suggests poor binding but is not conclusive. Order: sorted from the lowest average up, undetected variants last.

The variant GFNLNEYGIS | VIYADGRRTFYADSVK | GEIAGTFDM gave -0.62, -1.05, -1.49, -1.35, -0.80, -1.06 (mean -1.06; controls 0 of 18). The variant GFDLNEYGIS | VIYADGRRTFYADSVK | GEVAGTFVS showed -0.41, -0.92, -0.87, -1.07, -0.89, -0.98 (mean -0.86; controls 1 of 18). The variant GFDLNEYGIS | VIYADGMRKAYADDVK | GENAGTFDL gave -0.28, -1.28, -0.94, -1.41, -1.02, -0.20 (mean -0.86; controls 0 of 18). The variant GFDLNEYGIS | VIYADGRRTFYTDSVK | GGNAGTFDL gave -0.67, -1.03, -0.86, -0.85, -0.95, -0.54 (mean -0.82; controls 0 of 18). For GFDLNEYGIS | VIYADGKRTAYADSVK | GQTAGTFDQ, the assay gave -0.89, -0.82, 0.22, -1.07, -0.88, nd (mean -0.69; controls 0 of 18). For GFDLDEYGIS | VIYADGRRTAYTDSVK | GNVAGTFDV, the assay gave -0.48, -0.32, -0.65, -0.99, -0.67, -0.57 (mean -0.61; controls 1 of 18). With GFDLEEYGIS | VIYADGKRTAYADSVK | GNQAGTFDV the result was -0.41, -0.45, -0.42, -0.65, -0.74, -0.40 (mean -0.51; controls 1 of 18).

The variant GFDLNEYGIS | VIYADGKRTFYSDSVK | GTNAGTFDI showed -0.33, -0.73, -0.50, -0.60, -0.60, -0.23 (mean -0.50; controls 0 of 18). With GFDLNEYGIS | VIYADGRRTAYLDSVK | GTNAGTFDQ the result was -0.36, -0.48, -0.67, -0.45, -0.60, -0.30 (mean -0.48; controls 0 of 18). For GFDLDEYGIS | VIYADGQRTAYADNVK | GNVAGTFDL, the assay gave -0.52, -0.53, -0.44, -0.65, -0.26, -0.31 (mean -0.45; controls 1 of 18). The variant GFDLNEYGIS | VIYADGKRTSYADSVK | GNVAGTFDQ showed -0.28, -0.61, -0.29, -0.73, -0.29, -0.48 (mean -0.45; controls 0 of 18). The variant GFDLDEYGIS | VIYADGVRTAYADSVK | GNVAGTFDL showed 0.69, -0.48, -0.26, -0.77, -1.45, -0.11 (mean -0.40; controls 0 of 18). For GFQLDEYGIS | VIYADGKRTFYQDSVK | GEVAGTFDS, the assay gave -0.10, -0.46, -0.01, -0.60, -0.84, -0.30 (mean -0.38; controls 0 of 18). The variant GFDLNEYGIS | VIYADGMRTFYADSVK | GNNAGTFDT showed -0.23, -0.24, -0.31, -0.58, -0.42, -0.31 (mean -0.35; controls 0 of 18).

The variant GFDINEYGIS | VIYADGRRTFYADSVK | GTNAGTFDV showed -0.22, -0.34, -0.40, -0.43, -0.22, -0.34 (mean -0.33; controls 0 of 18). For GFDLNEYGIS | VIYADGRRTAYADKVK | GENAGTFDI, the assay gave -0.37, 0.04, -0.98, -0.12, -0.48, 0.05 (mean -0.31; controls 0 of 18). The variant GFDLNEYGIS | VIYADGSRTFYSDSVK | GNQAGTFDE showed -0.27, -0.36, -0.92, -0.30, -0.18, 0.20 (mean -0.30; controls 0 of 18). With GFDLDEYGIS | VIYADGRRTAYADSVK | GTNAGTFDS the result was -0.17, -0.51, -0.25, -0.22, -0.31, 0.15 (mean -0.22; controls 0 of 18). For GFDLNEYGIS | VIYADGRRTSYIDSVK | GEVAGTFDA, the assay gave 0.24, -0.39, -0.40, -0.14, -0.18, -0.41 (mean -0.21; controls 0 of 18). The variant GFDLNEYGIS | VIYADGKRTFYADSVK | GNTAGTFDV showed -0.11, -0.32, 0.10, -0.32, -0.46, 0.01 (mean -0.18; controls 0 of 18). With GFDLNEYGIS | VIYADGRRTAYADSVK | GEQAGTFDS the result was nd, -0.02, nd, nd, -0.32, nd (mean -0.17; controls 0 of 18).

For GFDLNEYGIS | VIYADGRRTAYADSVK | GEAAGTFDT, the assay gave -0.34, 0.10, -0.44, -0.23, -0.33, 0.30 (mean -0.16; controls 0 of 18). The variant GFDLDEYGIS | VIYADGKRTAYSDSVK | GNNAGTFDL gave -0.35, 0.12, -0.22, -0.06, -0.47, 0.50 (mean -0.08; controls 0 of 18). With GFDLNEYGIS | VIYADGRRTFYKDSVK | GEVAGTFDQ the result was -0.04, -0.19, -0.35, -0.19, -0.32, 0.79 (mean -0.05; controls 0 of 18). The variant GFDLNEYGIS | VIYADGMRTAYADKVK | GNQAGTFDL gave 0.07, 0.34, 0.26, -0.41, 0.39, 0.81 (mean 0.24; controls 0 of 18). With GFDLNEYGIS | VIYADGMRTAYAEDVK | GNNAGTFDV the result was 0.61, 0.56, -0.05, 0.00, 0.19, 0.51 (mean 0.30; controls 2 of 18). The variant GFQLDEYGIS | VIYADGRRTFYQDSVK | GEVAGTFDQ showed 0.14, 0.57, -0.13, 0.31, -0.05, 1.07 (mean 0.32; controls 0 of 18). The variant GFDLEDYGIS | VIYADGRRTFYADSVK | GNVAGTFDQ gave 0.21, 0.29, 0.52, 0.36, 0.61, 0.53 (mean 0.42; controls 0 of 18).

The variant GFDLEDYGIS | VIYADGQRTAYADSVK | GEAAGTFDL showed 0.88, 0.64, 0.30, 0.80, 0.84, 0.92 (mean 0.73; controls 0 of 18). For GFDINEYGIS | VIYADGKRTAYADSVK | GEAAGTFDS, the assay gave nd, 1.74, nd, nd, 0.09, 1.01 (mean 0.94; controls 0 of 18). The variant HFSLDSYGIS | VIYSDGRRTAYGDKVK | GRLAGTFDV gave nd, nd, 1.72, nd, nd, nd (controls 0 of 18). With GFDLNEYGIS | VIYADGRRTFYADSVK | GNNAGTFIV the result was nd, nd, nd, nd, 1.99, nd (controls 0 of 18). The variant GEDLEEYGIS | VIYADGMRQYYVNSVK | GTSNDFDML gave nd, nd, nd, nd, nd, 3.20 (controls 1 of 18). With GFDLNEYGIS | VIYADGMRTFYADSVK | GEFAGTFDS the result was nd, nd, nd, nd, nd, nd (controls 0 of 18). The variant GSSLDEYGIS | VIYADGQRVQYADTVK | GIQGVNVDV gave nd, nd, nd, nd, nd, nd (controls 0 of 18).

With GQSLNEYGIS | VIYADGHRKMYANDVK | GKIGAIFED the result was nd, nd, nd, nd, nd, nd (controls 0 of 18). With GFSLDEYGIS | VIYADGVRKSYMESVK | GNGKGTLFA the result was nd, nd, nd, nd, nd, nd (controls 0 of 18). For GFDLEDYGIS | VIYADGRRTFYADSVK | GEIAGTFDV, the assay gave nd, nd, nd, nd, nd, nd (controls 0 of 18). The variant GMDLNEYGIS | VIYADGRRTAYINQVK | GSQSMIVSS showed nd, nd, nd, nd, nd, nd (controls 0 of 18). With GKSIDEYGIS | VIYADGQRKEYTDSVK | GQFDDAMDL the result was nd, nd, nd, nd, nd, nd (controls 0 of 18). For GFSLDEMGIS | VIYADGQRTFYQASVK | GQNIGNVFV, the assay gave nd, nd, nd, nd, nd, nd (controls 0 of 18). With GFQLDEYGIS | VIYADGMRTAYSDSFK | GVVSTKIGI the result was nd, nd, nd, nd, nd, nd (controls 0 of 18).

For GFNLDEYGIS | VIYADGSRVAYRNTVK | GALGIGYSV, the assay gave nd, nd, nd, nd, nd, nd (controls 0 of 18). The variant GFDLGEYGIS | VIYADGVRTSYADKVK | GKNGAISSV gave nd, nd, nd, nd, nd, nd (controls 0 of 18). The variant GFGLNEYGIS | VIYADGQRKYYADNVK | GHFGEDGQV gave nd, nd, nd, nd, nd, nd (controls 0 of 18). The variant GKGLDEYGVS | VIYADGKRTSYVDDVK | GGIAGQFLV showed nd, nd, nd, nd, nd, nd (controls 0 of 18).

Extract of 5 entries:

CDR-H1	CDR-H2	CDR-H3	log10 Kd, replicates	log10 Kd (nM), mean	control signals
GFDINEYGIS	VIYADGKRTAYADSVK	GEAAGTFDS	nd, 1.74, nd, nd, 0.09, 1.01	0.94	0 of 18
GFQLDEYGIS	VIYADGRRTFYQDSVK	GEVAGTFDQ	0.14, 0.57, -0.13, 0.31, -0.05, 1.07	0.32	0 of 18
GFDLDEYGIS	VIYADGVRTAYADSVK	GNVAGTFDL	0.69, -0.48, -0.26, -0.77, -1.45, -0.11	-0.40	0 of 18
GFDINEYGIS	VIYADGRRTFYADSVK	GTNAGTFDV	-0.22, -0.34, -0.40, -0.43, -0.22, -0.34	-0.33	0 of 18
GFDLNEYGIS	VIYADGRRTAYADKVK	GENAGTFDI	-0.37, 0.04, -0.98, -0.12, -0.48, 0.05	-0.31	0 of 18

The authors averaged sequences with at least three values out of six and counted those with two or fewer as poor binders. As a blank, each scFv also met three strains without target: over all heavy chain designs, 1% of these pairings were detected, typically at 2.08 and seldom below 0.84. The control count says in how many pairings with the empty strains this scFv gave a signal. The range of this assay differs from that of the first round, and the authors advise against merging the two. Of ten entries with the parent sequence, four were seen in most replicates (averages 0.34 to 2.37), three in one and three in none, so single entries are noisy.

From the AlphaSeq antibody data of Li et al. 2023 (doi:10.1038/s41467-023-39022-2), copy in the FLAb collection.